Experimental data published in patent publication US7632933B2, “Corticotropin releasing factor 2 receptor agonists” (priority 2002, dated 2009).

How the values were obtained:
[1] = target: T1, CRF1R (Homo sapiens, UniProt P34998); test: CRF1R agonist activity (EC50 and Emax), called comparative CRF binding; format: cell-based; conditions: CRF1R EC50 (nM), CRF1R
T1 sequence (P34998 24-415): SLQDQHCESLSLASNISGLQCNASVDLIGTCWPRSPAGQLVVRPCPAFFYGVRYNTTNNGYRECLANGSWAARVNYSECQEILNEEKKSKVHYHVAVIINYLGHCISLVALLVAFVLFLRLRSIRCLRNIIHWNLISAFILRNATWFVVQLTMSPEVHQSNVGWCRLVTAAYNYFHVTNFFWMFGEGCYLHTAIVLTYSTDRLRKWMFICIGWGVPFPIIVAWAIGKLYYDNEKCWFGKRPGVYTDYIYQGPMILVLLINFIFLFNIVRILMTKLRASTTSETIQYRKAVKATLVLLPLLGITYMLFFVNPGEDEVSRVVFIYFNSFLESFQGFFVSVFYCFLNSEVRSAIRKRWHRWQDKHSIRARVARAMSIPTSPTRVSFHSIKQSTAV
Outline: (§1)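 Functional activity of peptides at each receptor subtype is determined in whole cells by measuring cAMP induction, either directly in lysates or through reporter expression downstream of a cAMP-responsive element, relative to vehicle.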

[2] = target: T2, CRF2R (Homo sapiens, UniProt Q13324); test: CRF2R agonist activity (EC50 and Emax), called comparative CRF binding; format: cell-based; conditions: CRF2R EC50 (nM), CRF2R
T2 sequence (Q13324 1-411): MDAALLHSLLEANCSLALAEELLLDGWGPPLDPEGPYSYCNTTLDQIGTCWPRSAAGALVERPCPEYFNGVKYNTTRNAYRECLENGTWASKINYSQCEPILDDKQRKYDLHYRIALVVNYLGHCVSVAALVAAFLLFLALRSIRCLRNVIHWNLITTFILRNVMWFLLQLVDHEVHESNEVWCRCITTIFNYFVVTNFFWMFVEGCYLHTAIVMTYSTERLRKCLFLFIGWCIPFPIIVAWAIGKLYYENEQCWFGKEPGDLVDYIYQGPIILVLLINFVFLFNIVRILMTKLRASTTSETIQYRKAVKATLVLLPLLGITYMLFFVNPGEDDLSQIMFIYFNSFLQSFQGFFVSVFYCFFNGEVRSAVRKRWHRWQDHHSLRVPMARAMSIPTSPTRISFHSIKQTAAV
Outline: as §1

Structure (SMILES)	EC50 [1] [nM]	EC50 [2] [nM]
CC[C@H](C)[C@H](NC(=O)[C@@H](NC(=O)[C@H](CC(=O)O)NC(=O)[C@H](CC(C)C)NC(=O)[C@H](CC(C)C)NC(=O)[C@H](CC(C)C)NC(=O)[C@H](CCCNC(=N)N)NC(=O)[C@H](CC(N)=O)NC(=O)[C@H](CC(N)=O)NC(=O)[C@H](C)NC(=O)[C@H](C)NC(=O)[C@H](CCC(N)=O)NC(=O)[C@H](CCC(N)=O)NC(=O)[C@H](CCCCN)NC(=O)[C@H](CCC(=O)O)NC(=O)[C@H](CCCCN)NC(=O)[C@H](CCC(=O)O)NC(=O)[C@H](CCC(N)=O)NC(=O)[C@H](CCCCN)NC(=O)[C@H](CCC(=O)O)NC(=O)[C@@H](NC(=O)[C@H](CCC(=O)O)NC(=O)[C@@H](NC(=O)[C@H](CCSC)NC(=O)[C@H](CCCCN)NC(=O)[C@H](CCCNC(=N)N)NC(=O)[C@H](CC(C)C)NC(=O)[C@H](CC(C)C)NC(=O)[C@H](CC(=O)O)NC(=O)[C@@H](NC(=O)[C@@H]1CCCN1C(=O)[C@H](CC(C)C)NC(=O)[C@H](CC(=O)O)NC(=O)[C@@H](NC(=O)[C@H](CO)NC(=O)[C@@H](NC(=O)[C@@H]1CCCN1C(=O)[C@@H]1CCCN1C(=O)CNC(=O)[C@@H]1CCC(=O)N1)[C@@H](C)CC)[C@@H](C)CC)[C@@H](C)O)[C@@H](C)CC)[C@@H](C)CC)[C@@H](C)O)C(N)=O [compound 49]	> 1000	> 100
CC[C@H](C)[C@H](NC(=O)[C@@H](NC(=O)[C@H](CC(=O)O)NC(=O)[C@H](CC(C)C)NC(=O)[C@H](CC(C)C)NC(=O)[C@H](CC(C)C)NC(=O)[C@H](CCCNC(=N)N)NC(=O)[C@H](CC(N)=O)NC(=O)[C@H](CC(N)=O)NC(=O)[C@H](C)NC(=O)[C@H](C)NC(=O)[C@H](CCC(N)=O)NC(=O)[C@H](CCC(N)=O)NC(=O)[C@H](CCCCN)NC(=O)[C@H](CCC(=O)O)NC(=O)[C@H](CCCCN)NC(=O)[C@H](CCC(=O)O)NC(=O)[C@H](CCC(N)=O)NC(=O)[C@H](CCCCN)NC(=O)[C@H](CCC(=O)O)NC(=O)[C@@H](NC(=O)[C@H](CCC(=O)O)NC(=O)[C@@H](NC(=O)[C@H](CCSC)NC(=O)[C@H](CCCCN)NC(=O)[C@H](CCCNC(=N)N)NC(=O)[C@H](CC(C)C)NC(=O)[C@H](CC(C)C)NC(=O)[C@H](CC(N)=O)NC(=O)[C@@H](NC(=O)[C@@H]1CCCN1C(=O)[C@H](CC(C)C)NC(=O)[C@H](CC(=O)O)NC(=O)[C@@H](NC(=O)[C@H](CO)NC(=O)[C@@H](NC(=O)[C@@H]1CCCN1C(=O)[C@@H]1CCCN1C(=O)CNC(=O)[C@@H]1CCC(=O)N1)[C@@H](C)CC)[C@@H](C)CC)[C@@H](C)O)[C@@H](C)CC)[C@@H](C)CC)[C@@H](C)O)C(N)=O [compound 59]	> 100	> 100
CC[C@H](C)[C@H](NC(=O)[C@H](CCCNC(=N)N)NC(=O)[C@H](C)NC(=O)[C@H](CC(N)=O)NC(=O)[C@@H](NC(=O)[C@@H](NC(=O)[C@H](C)NC(=O)[C@H](CCC(N)=O)NC(=O)[C@H](CCC(N)=O)NC(=O)[C@H](CCCCN)NC(=O)[C@H](CCC(=O)O)NC(=O)[C@H](CCCCN)NC(=O)[C@H](CCC(=O)O)NC(=O)[C@H](CCC(N)=O)NC(=O)[C@H](CCCCN)NC(=O)[C@H](CCC(=O)O)NC(=O)[C@@H](NC(=O)[C@H](CCC(=O)O)NC(=O)[C@@H](NC(=O)[C@H](CCSC)NC(=O)[C@H](CCCCN)NC(=O)[C@H](CCCNC(=N)N)NC(=O)[C@H](CC(C)C)NC(=O)[C@H](CC(C)C)NC(=O)[C@H](Cc1ccc(O)cc1)NC(=O)[C@@H](NC(=O)[C@@H]1CCCN1C(=O)[C@H](CC(C)C)NC(=O)[C@H](CC(=O)O)NC(=O)[C@@H](NC(=O)[C@H](CO)NC(=O)[C@@H](NC(=O)[C@@H]1CCCN1C(=O)[C@@H]1CCCN1C(=O)CNC(=O)[C@@H]1CCC(=O)N1)[C@@H](C)CC)[C@@H](C)CC)[C@@H](C)O)[C@@H](C)CC)[C@@H](C)CC)[C@@H](C)O)[C@@H](C)O)C(=O)N[C@@H](CC(C)C)C(=O)N[C@@H](C)C(=O)N[C@@H](CCCNC(=N)N)C(=O)N[C@H](C(N)=O)C(C)C [compound 151]	≥ 1000	36.8
CC[C@H](C)[C@H](NC(=O)[C@@H](NC(=O)[C@H](CC(=O)O)NC(=O)[C@H](CC(C)C)NC(=O)[C@H](CC(C)C)NC(=O)[C@H](CC(C)C)NC(=O)[C@H](CCCNC(=N)N)NC(=O)[C@H](CC(N)=O)NC(=O)[C@H](CC(N)=O)NC(=O)[C@H](C)NC(=O)[C@H](C)NC(=O)[C@H](CCC(N)=O)NC(=O)[C@H](CCC(N)=O)NC(=O)[C@H](CCCCN)NC(=O)[C@H](CCC(=O)O)NC(=O)[C@H](CCCCN)NC(=O)[C@H](CCC(=O)O)NC(=O)[C@H](CCC(N)=O)NC(=O)[C@H](CCCCN)NC(=O)[C@H](CCC(=O)O)NC(=O)[C@@H](NC(=O)[C@H](CCC(=O)O)NC(=O)[C@@H](NC(=O)[C@H](CCSC)NC(=O)[C@H](CCCCN)NC(=O)[C@H](CCCNC(=N)N)NC(=O)[C@H](CC(C)C)NC(=O)[C@H](CC(C)C)NC(=O)[C@@H](NC(=O)[C@H](Cc1ccc(O)cc1)NC(=O)[C@@H]1CCCN1C(=O)[C@H](CC(C)C)NC(=O)[C@H](CC(=O)O)NC(=O)[C@@H](NC(=O)[C@H](CO)NC(=O)[C@@H](NC(=O)[C@@H]1CCCN1C(=O)[C@@H]1CCCN1C(=O)CNC(=O)[C@@H]1CCC(=O)N1)[C@@H](C)CC)[C@@H](C)CC)[C@@H](C)CC)[C@@H](C)CC)[C@@H](C)CC)[C@@H](C)O)C(N)=O [compound 204]	32.1	3.6
CC[C@H](C)[C@H](NC(=O)[C@@H](NC(=O)[C@H](CC(=O)O)NC(=O)[C@H](CC(C)C)NC(=O)[C@H](CC(C)C)NC(=O)[C@H](CC(C)C)NC(=O)[C@H](CCCNC(=N)N)NC(=O)[C@H](CC(N)=O)NC(=O)[C@H](CC(N)=O)NC(=O)[C@H](C)NC(=O)[C@H](C)NC(=O)[C@H](CCC(N)=O)NC(=O)[C@H](CCC(N)=O)NC(=O)[C@H](CCCCN)NC(=O)[C@H](CCC(=O)O)NC(=O)[C@H](CCCCN)NC(=O)[C@H](CCC(=O)O)NC(=O)[C@H](CCC(N)=O)NC(=O)[C@H](CCCCN)NC(=O)[C@H](CCC(=O)O)NC(=O)[C@@H](NC(=O)[C@H](CCC(=O)O)NC(=O)[C@@H](NC(=O)[C@H](CCSC)NC(=O)[C@H](CCCCN)NC(=O)[C@H](CCCNC(=N)N)NC(=O)[C@H](CC(C)C)NC(=O)[C@H](CC(C)C)NC(=O)[C@H](Cc1ccc(O)cc1)NC(=O)[C@H](CO)NC(=O)[C@@H]1CCCN1C(=O)[C@H](CC(C)C)NC(=O)[C@H](CC(=O)O)NC(=O)[C@@H](NC(=O)[C@H](CO)NC(=O)[C@@H](NC(=O)[C@@H]1CCCN1C(=O)[C@@H]1CCCN1C(=O)CNC(=O)[C@@H]1CCC(=O)N1)[C@@H](C)CC)[C@@H](C)CC)[C@@H](C)CC)[C@@H](C)CC)[C@@H](C)O)C(N)=O [compound 56]	> 100	50.3
